Literature values, collected in patent publication US20040220266A1, “Composition and method for enhancing the bioavailability of calcium and magnesium in dietary supplements and food additives” (priority 2002, published 2004).

Conditions: 20° C.; cited from earlier work

Q: With Calcium glycerophosphate as the substance, how does the “soluble in parts of water” value read?
A: The value was 50 parts of water.
